From patent US20230312610A1, “Anti-Microbial Compositions” (5D HEALTH PROTECTION GROUP LTD, priority 2020, published 2023)

Assay: Concentration studies: loading of complex in aqueous solution
Type: physicochemical
Settings: clear aqueous solution of the complex as prepared
Protocol: 1.53 g DTPA was dissolved in 4.37 g demineralised water plus 2.10 g 40% NaOH to produce a DTPA sodium salt solution. 3.29 g silver nitrate was dissolved in 4.71 g demineralised water to produce a silver nitrate solution. 2.58 g copper sulphate pentahydrate was dissolved in 16.09 g demineralised water to produce a copper sulphate solution. Silver nitrate solution was added to the DPTA solution with vigorous stirring. A milky white dispersion was formed. Copper sulphate solution was added to the white dispersion. With vigorous stirring the white precipitate dissolved to give a clear, blue liquid, signifying the formation of the silver/copper DTPA mixed metal complex (MMC). […] The theoretical concentration of silver/copper DTPA MMC is 9.2% (0.15 mol/Kg). Comparative concentration studies performed on Ag/Cu EDTA MMC examples provided theoretical concentration values of 0.07-0.09 mol/Kg.
1.11 g DTPA was dissolved in 4.59 g demineralised water plus 1.3 g 40% NaOH to produce a DTPA sodium salt solution. 2.39 g silver nitrate was dissolved in 4.61 g demineralised water to produce a silver nitrate solution. 2.08 g zinc sulphate monohydrate was dissolved in 15.92 g demineralised water to produce a zinc sulphate solution. Silver nitrate solution was added to the DTPA solution with vigorous stirring. A milky white dispersion was formed. Zinc sulphate solution was added to the white dispersion. […]

Compound | total soluble solids content of the solution
O=C([O-])CN(CCN(CC(=O)[O-])CC(=O)[O-])CCN(CC(=O)[O-])CC(=O)[O-].[Ag+].[Ag+].[Al+3] [Ag2Al(DTPA)] | 7.2 % w/w
O=C([O-])CN(CCN(CC(=O)[O-])CC(=O)[O-])CCN(CC(=O)[O-])CC(=O)[O-].[Ag+].[Ag+].[Ag+].[Zn+2] [silver/zinc-DTPA mixed metal complex, Ag3ZnDPTA] | 24.7 % w/w
